By UniProt entry, the sequences of proteins in these tests, tags left out.
UniProt P53779, whole entry: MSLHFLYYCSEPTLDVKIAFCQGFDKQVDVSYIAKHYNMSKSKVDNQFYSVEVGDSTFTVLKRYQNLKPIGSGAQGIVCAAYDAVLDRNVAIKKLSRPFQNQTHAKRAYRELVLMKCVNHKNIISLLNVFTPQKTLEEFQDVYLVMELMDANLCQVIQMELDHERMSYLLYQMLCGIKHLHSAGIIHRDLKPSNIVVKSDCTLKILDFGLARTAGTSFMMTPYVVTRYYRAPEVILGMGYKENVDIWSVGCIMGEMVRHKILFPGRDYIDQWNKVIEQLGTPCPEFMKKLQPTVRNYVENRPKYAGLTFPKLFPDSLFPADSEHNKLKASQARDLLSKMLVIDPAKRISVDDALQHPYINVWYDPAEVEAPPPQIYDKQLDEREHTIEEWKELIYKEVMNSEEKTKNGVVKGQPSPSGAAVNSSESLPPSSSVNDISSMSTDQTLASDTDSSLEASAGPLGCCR

According to patent publication US20260384451A1, “6-ARYL IMIDAZO[2,1-B]THI/OpXAZOLE-2-CARBOXILIC ACID DERIVATIVE AND PHARMACEUTICAL COMPOSITION FOR TREATING ALZHEIMER'S DISEASE CONTAINING SAME AS ACTIVE INGREDIENT” (published 2026):

What follows are compounds tested against JNK3 (Homo sapiens, UniProt P53779) (assay: In vitro JNK3 inhibitory activity assay). Settings: read-out: JNK3 inhibitory activity (IC50); Table 1, imidazo[2,1-b]thiazole derivatives, class symbols.

Row | Structure (SMILES) | IC50 [nM]
1 | CCOC(=O)c1cn2c(-c3ccnc(N[C@@H]4CCCN(C(=O)N(C)C)C4)n3)c(-c3ccc4c(c3)OCCO4)nc2s1 | < 1
2 | CCOC(=O)c1cn2c(-c3ccnc(N[C@@H]4CCCN(C(=O)C5CC5)C4)n3)c(-c3ccc(F)c(C(F)(F)F)c3)nc2s1 | 1 to 30
3 | CN(C)C(=O)N1CCC[C@H](Nc2nccc(-c3c(-c4ccc5c(c4)OCCO5)nc4sc(C(N)=O)cn34)n2)C1 | 30 to 1000
4 | CNC(=O)c1cn2c(-c3ccnc(N[C@H]4CCCN(C(=O)N(C)C)C4)n3)c(-c3ccc4c(c3)OCCO4)nc2s1 | 30 to 1000
5 | CCOC(=O)c1cn2c(-c3ccnc(N[C@H]4CCCN(C(=O)N(C)C)C4)n3)c(-c3ccc(F)c(C(F)(F)F)c3)nc2s1 | 30 to 1000
6 | NC(=O)c1cn2c(-c3ccnc(N[C@H]4CCCN(C(=O)C5CC5)C4)n3)c(-c3ccc4ccccc4c3)nc2s1 | 30 to 1000
7 | CCOC(=O)c1cn2c(-c3ccnc(N[C@@H]4CCCN(C(=O)N(C)C)C4)n3)c(-c3ccc(F)c(C(F)(F)F)c3)nc2s1 | 1 to 30
8 | CN(C)C(=O)N1CCC[C@@H](Nc2nccc(-c3c(-c4ccc(Cl)c(Cl)c4)nc4sc(C(N)=O)cn34)n2)C1 | < 1
9 | CCOC(=O)c1cn2c(-c3ccnc(N[C@H]4CCCN(C(=O)N(C)C)C4)n3)c(-c3ccc(Cl)c(Cl)c3)nc2s1 | 30 to 1000
10 | CN(C)C(=O)N1CCC[C@H](Nc2nccc(-c3c(-c4ccc(F)c(C(F)(F)F)c4)nc4sc(C(N)=O)cn34)n2)C1 | 30 to 1000

Next, values leading:

Row | IC50 [nM] | Structure (SMILES)
11 | 30 to 1000 | CNC(=O)c1cn2c(-c3ccnc(N[C@H]4CCCN(C(=O)C5CC5)C4)n3)c(-c3ccc(Cl)c(Cl)c3)nc2s1
12 | 1 to 30 | NC(=O)c1cn2c(-c3ccnc(N[C@@H]4CCCN(C(=O)C5CC5)C4)n3)c(-c3ccc4c(c3)OCCO4)nc2s1
13 | 1 to 30 | CNC(=O)c1cn2c(-c3ccnc(N[C@@H]4CCCN(C(=O)C5CC5)C4)n3)c(-c3ccc(F)c(C(F)(F)F)c3)nc2s1

Same assay, conditions: read-out: JNK3 inhibitory activity (IC50); Table 2, imidazo[2,1-b]thiazole derivatives, class symbols

Row | IC50 [nM] | Structure (SMILES)
14 | 30 to 1000 | COCCNc1nccc(-c2c(-c3ccc4ccccc4c3)nc3sc(C(N)=O)cn23)n1
15 | 30 to 1000 | CNC(=O)c1cn2c(-c3ccnc(NC4CCCCC4)n3)c(-c3ccc4c(c3)OCCO4)nc2s1
16 | 1 to 30 | CNC(=O)c1cn2c(-c3ccnc(NC4CCCCC4)n3)c(-c3ccc(F)c(Cl)c3)nc2s1
17 | 30 to 1000 | CCOC(=O)c1cn2c(-c3ccnc(NCCOC)n3)c(-c3ccc4ccccc4c3)nc2s1
18 | 1 to 30 | CNC(=O)c1cn2c(-c3ccnc(NC4CCOCC4)n3)c(-c3ccc(Cl)c(Cl)c3)nc2s1
19 | > 10000 | NC(=O)c1cn2c(-c3ccnc(NCC4CC4)n3)c(-c3ccc4ccccc4c3)nc2s1

Same assay, conditions: read-out: JNK3 inhibitory activity (IC50); Table 3, imidazo[2,1-b]oxazole derivatives, class symbols

Row | IC50 [nM] | Structure (SMILES)
20 | < 1 | CN(C)C(=O)N1CCC[C@@H](Nc2nccc(-c3c(-c4ccc5ccccc5c4)nc4oc(C(N)=O)cn34)n2)C1
21 | < 1 | CN(C)C(=O)N1CCC[C@H](Nc2nccc(-c3c(-c4ccc5ccccc5c4)nc4oc(C(N)=O)cn34)n2)C1
22 | < 1 | CNC(=O)c1cn2c(-c3ccnc(N[C@H]4CCCN(C(=O)C5CC5)C4)n3)c(-c3ccc4c(c3)OCCO4)nc2o1
23 | 1 to 30 | CNC(=O)c1cn2c(-c3ccnc(N[C@H]4CCCN(C(=O)N(C)C)C4)n3)c(-c3ccc4ccccc4c3)nc2o1
24 | 1 to 30 | CCOC(=O)c1cn2c(-c3ccnc(N[C@H]4CCCN(C(=O)C5CC5)C4)n3)c(-c3ccc4ccccc4c3)nc2o1
25 | < 1 | CNC(=O)c1cn2c(-c3ccnc(N[C@@H]4CCCN(C(=O)C5CC5)C4)n3)c(-c3ccc(F)c(Cl)c3)nc2o1
26 | < 1 | NC(=O)c1cn2c(-c3ccnc(N[C@H]4CCCN(C(=O)C5CC5)C4)n3)c(-c3ccc4c(c3)OCCO4)nc2o1
27 | < 1 | CN(C)C(=O)N1CCC[C@H](Nc2nccc(-c3c(-c4ccc(Cl)c(Cl)c4)nc4oc(C(N)=O)cn34)n2)C1
28 | < 1 | CNC(=O)c1cn2c(-c3ccnc(N[C@H]4CCCN(C(=O)C5CC5)C4)n3)c(-c3ccc(F)c(Cl)c3)nc2o1
29 | < 1 | CCOC(=O)c1cn2c(-c3ccnc(N[C@H]4CCCN(C(=O)C5CC5)C4)n3)c(-c3ccc4c(c3)OCCO4)nc2o1
30 | 1 to 30 | CNC(=O)c1cn2c(-c3ccnc(N[C@@H]4CCCN(C(=O)C5CC5)C4)n3)c(-c3ccc4c(c3)OCCO4)nc2o1
31 | < 1 | NC(=O)c1cn2c(-c3ccnc(N[C@@H]4CCCN(C(=O)C5CC5)C4)n3)c(-c3ccc4c(c3)OCCO4)nc2o1
32 | < 1 | CNC(=O)c1cn2c(-c3ccnc(N[C@H]4CCCN(C(=O)C5CC5)C4)n3)c(-c3ccc4ccccc4c3)nc2o1
33 | < 1 | NC(=O)c1cn2c(-c3ccnc(N[C@@H]4CCCN(C(=O)C5CC5)C4)n3)c(-c3ccc(F)c(Cl)c3)nc2o1
34 | 1000 to 10000 | NC(=O)c1cn2c(-c3ccnc(N[C@H]4CCCN(C(=O)C5CC5)C4)n3)c(-c3ccc(Cl)c(Cl)c3)nc2o1
35 | 1 to 30 | CCOC(=O)c1cn2c(-c3ccnc(N[C@@H]4CCCN(C(=O)C5CC5)C4)n3)c(-c3ccc4ccccc4c3)nc2o1

Same assay, conditions: read-out: JNK3 inhibitory activity (IC50); Table 4, imidazo[2,1-b]oxazole derivatives, class symbols

Row | IC50 [nM] | Structure (SMILES)
36 | 1 to 30 | CCOC(=O)c1cn2c(-c3ccnc(NC4CCN(C(=O)C5CC5)CC4)n3)c(-c3ccc4ccccc4c3)nc2o1

Same assay, conditions: read-out: JNK3 inhibitory activity (IC50); Table 5, imidazo[2,1-b]oxazole derivatives, class symbols

Row | Structure (SMILES) | IC50 [nM]
37 | CCOC(=O)c1cn2c(-c3ccnc(NC4CCCCC4)n3)c(-c3ccc(Cl)c(Cl)c3)nc2o1 | < 1
38 | NC(=O)c1cn2c(-c3ccnc(NC4CCOCC4)n3)c(-c3ccc4c(c3)OCCO4)nc2o1 | 1 to 30
39 | CCOC(=O)c1cn2c(-c3ccnc(NC4CCOCC4)n3)c(-c3ccc(F)c(Cl)c3)nc2o1 | < 1
40 | NC(=O)c1cn2c(-c3ccnc(NC4CCOCC4)n3)c(-c3ccc4ccccc4c3)nc2o1 | < 1
41 | CNC(=O)c1cn2c(-c3ccnc(NC4CCOCC4)n3)c(-c3ccc4c(c3)OCCO4)nc2o1 | 1 to 30
42 | NC(=O)c1cn2c(-c3ccnc(NC4CCOCC4)n3)c(-c3ccc(Cl)c(Cl)c3)nc2o1 | < 1
43 | CCOC(=O)c1cn2c(-c3ccnc(NC4CCOCC4)n3)c(-c3ccc4ccccc4c3)nc2o1 | < 1
44 | CCOC(=O)c1cn2c(-c3ccnc(NC4CCCCC4)n3)c(-c3ccc4c(c3)OCCO4)nc2o1 | 1 to 30
45 | CCOC(=O)c1cn2c(-c3ccnc(NC4CCOCC4)n3)c(-c3ccc4c(c3)OCCO4)nc2o1 | 1 to 30

More lines, now with the values ahead:

Row | IC50 [nM] | Structure (SMILES)
46 | < 1 | NC(=O)c1cn2c(-c3ccnc(NC4CCCCC4)n3)c(-c3ccc(F)c(Cl)c3)nc2o1
47 | < 1 | CCOC(=O)c1cn2c(-c3ccnc(NC4CCCCC4)n3)c(-c3ccc(F)c(Cl)c3)nc2o1

Same assay, conditions: read-out: JNK3 inhibitory activity (IC50); Table 6, imidazo[2,1-b]thiazole-based covalent inhibitors, class symbols

Row | IC50 [nM] | Structure (SMILES)
48 | 1 to 30 | C#CCNC(=O)c1cn2c(-c3ccnc(NC4CCCCC4)n3)c(-c3ccc(F)c(Cl)c3)nc2s1
49 | 30 to 1000 | CN(C)/C=C/C(=O)c1cn2c(-c3ccnc(NC4CCCCC4)n3)c(-c3ccc(Cl)c(Cl)c3)nc2s1
50 | 1 to 30 | C=CC(=O)c1cn2c(-c3ccnc(NC4CCOCC4)n3)c(-c3ccc4ccccc4c3)nc2s1
51 | 1 to 30 | CN(C)/C=C/C(=O)c1cn2c(-c3ccnc(NC4CCCCC4)n3)c(-c3ccc4ccccc4c3)nc2s1

Same assay, conditions: read-out: JNK3 inhibitory activity (IC50); Table 7, imidazo[2,1-b]oxazole-based covalent inhibitors, class symbols

Row | IC50 [nM] | Structure (SMILES)
52 | < 1 | CN(C)/C=C/C(=O)c1cn2c(-c3ccnc(NC4CCOCC4)n3)c(-c3ccc(F)c(Cl)c3)nc2o1
53 | 1 to 30 | C#CCNC(=O)c1cn2c(-c3ccnc(NC4CCOCC4)n3)c(-c3ccc(Cl)c(Cl)c3)nc2o1
54 | < 1 | C=CC(=O)Nc1cn2c(-c3ccnc(NC4CCOCC4)n3)c(-c3ccc(F)c(Cl)c3)nc2o1
55 | 1 to 30 | CN(C)/C=C/C(=O)c1cn2c(-c3ccnc(NC4CCOCC4)n3)c(-c3ccc(Cl)c(Cl)c3)nc2o1
56 | 1 to 30 | C#CCNC(=O)c1cn2c(-c3ccnc(NC4CCCCC4)n3)c(-c3ccc4ccccc4c3)nc2o1
57 | 1 to 30 | CN(C)/C=C/C(=O)c1cn2c(-c3ccnc(NC4CCOCC4)n3)c(-c3ccc4ccccc4c3)nc2o1
